Experiment [1] has as its target T1, Polyunsaturated fatty acid 5-lipoxygenase (Rattus norvegicus, UniProt P12527).
T1 sequence (P12527 whole entry): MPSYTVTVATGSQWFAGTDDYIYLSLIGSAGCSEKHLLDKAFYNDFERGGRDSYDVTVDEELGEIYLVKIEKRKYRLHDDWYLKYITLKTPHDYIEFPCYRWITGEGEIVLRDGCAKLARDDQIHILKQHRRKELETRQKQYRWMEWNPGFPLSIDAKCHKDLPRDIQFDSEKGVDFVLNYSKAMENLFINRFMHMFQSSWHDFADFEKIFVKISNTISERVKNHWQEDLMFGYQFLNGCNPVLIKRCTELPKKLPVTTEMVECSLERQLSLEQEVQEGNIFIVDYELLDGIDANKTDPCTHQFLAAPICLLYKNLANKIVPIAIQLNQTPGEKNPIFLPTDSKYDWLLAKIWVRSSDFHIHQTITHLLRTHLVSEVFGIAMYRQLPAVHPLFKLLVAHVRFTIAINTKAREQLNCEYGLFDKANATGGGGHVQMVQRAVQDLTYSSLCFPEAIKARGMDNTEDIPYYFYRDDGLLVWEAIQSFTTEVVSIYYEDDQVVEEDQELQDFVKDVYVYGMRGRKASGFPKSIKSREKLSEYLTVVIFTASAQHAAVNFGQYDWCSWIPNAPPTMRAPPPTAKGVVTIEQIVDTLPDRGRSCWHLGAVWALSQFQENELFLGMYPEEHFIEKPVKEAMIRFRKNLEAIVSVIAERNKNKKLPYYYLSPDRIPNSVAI
Nature of the experiment: In vitro inhibitory activity against 5-lipoxygenase in rat basophilic leukemia cells(RBL-1). The format is cell-based. The method in brief: (§1)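 Enzyme source: sonicated lysate of trypsin-harvested adherent RBL-1 cells (3.0 × 10^7 cells/mL in 10 mM BES, 10 mM PIPES, 1 mM EDTA, pH 6.8), 20000g 20-min supernatant. Compounds in DMSO preincubated with enzyme 20 min at 37 °C in buffer with 0.7 mM CaCl2, 100 mM NaCl. Radiolabelled 5-HETE counted after chromatography, corrected via [3H]5-HETE recovery.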

Experiment [2] has as its target T1, Polyunsaturated fatty acid 5-lipoxygenase. Briefly: Logarithmic value of inhibitory concentration against 5-lipoxygenase in rat basophilic leukemia cells (RBL-1). It is filed as cell-based. As to conditions: read-out: Log 1/IC50 (converted). The method in brief: as §1

For `CN(O)C(=O)/C(=C/c1ccc2ccccc2c1)c1ccccc1`, the IC50 in experiment [1] is 0.51 µM; in experiment [2] it was 0.0501 µM.

Consider `CN(O)C(=O)/C(=C/c1ccc2ccccc2c1)c1ccc(Br)cc1`, for which the IC50 in experiment [1] is 1.8 µM; in experiment [2] it was 1.82 µM.

Regarding `CN(O)C(=O)/C=C/c1cc2ccccc2cc1[N+](=O)[O-]`, the IC50 in experiment [1] was 0.3 µM; in experiment [2] it was 0.1 µM.

The record behind these values is ChEMBL document CHEMBL1125059, “Hydroxamic acid inhibitors of 5-lipoxygenase: quantitative structure-activity relationships” (J Med Chem, 1990).
